We go through one compound from ChEMBL document CHEMBL5729531, “Neprilysin inhibitors” (2023).

pKi: −log10 of the molar value.

The assay addresses Neprilysin/Angiotensin-converting enzyme (Homo sapiens, UniProt P08473+P12821). The assay is described as follows: Enzyme Inhibition Assay: The assays were performed in 384-well white opaque plates at 37° C. using the fluorogenic peptide substrates at a concentration of 10 μM in Assay Buffer (NEP: 50 mM HEPES, pH 7.5, 100 mM NaCl, 0.01% polyethylene glycol sorbitan monolaurate (Tween-20), 10 μM ZnSO4; ACE: 50 mM HEPES, pH 7.5, 100 mM NaCl, 0.01% Tween-20, 1 μM ZnSO4). The respective enzymes were used at …. The format is protein-complex assay.

What is called pKi is the negative decadic logarithm of the Ki, by convention in mol/L. A high value points to a small Ki. Compound `O=C(O)C(=O)N[C@H](Cc1ccc(-c2ccccc2)cc1)C[C@@H](CO)C(=O)O` gave a pKi of 9.20.
